These results are taken from ChEMBL document CHEMBL4706749, “Development of Fluorescence Imaging Probes for Labeling COX-1 in Live Ovarian Cancer Cells” (ACS Med Chem Lett, 2021).

By UniProt entry, the sequences of proteins in these tests, tags left out.
UniProt P23219, whole entry: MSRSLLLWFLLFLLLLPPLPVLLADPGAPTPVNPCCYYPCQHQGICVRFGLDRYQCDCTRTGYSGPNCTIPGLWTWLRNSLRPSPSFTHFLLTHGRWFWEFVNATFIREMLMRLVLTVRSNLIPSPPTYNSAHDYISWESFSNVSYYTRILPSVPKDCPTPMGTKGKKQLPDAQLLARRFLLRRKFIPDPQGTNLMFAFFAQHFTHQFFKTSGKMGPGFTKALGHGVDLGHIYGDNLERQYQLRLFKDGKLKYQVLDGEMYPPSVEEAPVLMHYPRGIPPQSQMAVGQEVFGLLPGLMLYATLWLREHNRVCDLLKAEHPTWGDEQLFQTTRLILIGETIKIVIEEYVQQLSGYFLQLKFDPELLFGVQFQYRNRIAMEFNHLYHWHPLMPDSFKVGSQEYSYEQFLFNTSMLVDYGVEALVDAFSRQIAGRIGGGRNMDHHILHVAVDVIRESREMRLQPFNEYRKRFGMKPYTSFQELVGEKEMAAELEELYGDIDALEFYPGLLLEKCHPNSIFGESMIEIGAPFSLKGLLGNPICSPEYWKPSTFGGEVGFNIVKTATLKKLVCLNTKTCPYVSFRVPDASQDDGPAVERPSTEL

What is called IC50 is the concentration needed to halve the response being measured. The low end stands for inhibition by little substance, the high end for a need for much substance.

One test concerns the target T1, Prostaglandin G/H synthase 1 (Homo sapiens, UniProt P23219).
As for `COc1ccc(C2=C(c3cccc(F)c3)C(=O)OC2)cc1`, the IC50 turned out to be 480 nM.

In the next test the target is T1, Prostaglandin G/H synthase 1. The format is cell-based, OVCAR-3. This is another data set of the same source.
`Nc1cc(-c2ccco2)nn1-c1ccc(F)cc1` came in with an IC50 of 5000 nM.
Same read-out and setting: then `COc1ccc(-n2nc(-c3ccco3)cc2N)cc1`, with 5400 nM; and `Nc1cc(-c2ccco2)nn1-c1ccccc1`, with 5800 nM; and `O=C(O)c1ccc(-n2nc(-c3ccco3)cc2-n2cc(CNc3ccc([N+](=O)[O-])c4nonc34)nn2)cc1`, with 900 nM.
With `Nc1cc(-c2ccco2)nn1-c1ccc(Cl)cc1`, half-maximal inhibition (IC50) required 20500 nM.
As to `COC(=O)c1ccc(-n2nc(-c3ccco3)cc2N)cc1`, the midpoint of inhibition, the IC50, lay at 90 nM.
`CC(C)c1ccc(-n2nc(-c3ccco3)cc2N)cc1`: the IC50 came out at 1100 nM.
On the same count and under the same terms, then `[N-]=[N+]=Nc1cc(-c2ccco2)nn1-c1ccc(C(=O)O)cc1`, with 400 nM; and `Nc1cc(-c2ccco2)nn1-c1ccc(C(=O)O)cc1`, with 70 nM.
